The results in this text go back to patent publication US20110245496A1, “Quinazoline Salt Compounds” (priority 2007, published 2011).

This data set can be described thus: Salt solubility measurement in water. The following applies: stirred at ambient temperature 18-20 hours, filtered, hplc assay.

In the case of `CS(=O)(=O)CCNCc1ccc(-c2ccc3ncnc(Nc4ccc(OCc5cccc(F)c5)c(Cl)c4)c3c2)o1.CS(=O)(=O)CCNCc1ccc(-c2ccc3ncnc(Nc4ccc(OCc5cccc(F)c5)c(Cl)c4)c3c2)o1.O=S(=O)(O)CCS(=O)(=O)O`, the “Solubility as free base” value amounted to 7 µg/mL and the Solubility as salt is 9 µg/mL.
